Values quoted from earlier work as cited in Sander's compilation of Henry's law constants (doi:10.1016/0045-6535(88)90142-7).

Experiment: Henry solubility constant Hcp at 298.15 K (mol/(m3 Pa))
Details: reference: Ryan et al. (1988); cited value

In the case of `CCl` [chloromethane], the “Henry solubility constant Hcp” value is given as 2.5e-05.
